Source: ChEMBL document CHEMBL2384946 (Bioorg Med Chem, 2013)

Amino acid sequences for entries named in this document (tags omitted).
UniProt P14416, whole entry: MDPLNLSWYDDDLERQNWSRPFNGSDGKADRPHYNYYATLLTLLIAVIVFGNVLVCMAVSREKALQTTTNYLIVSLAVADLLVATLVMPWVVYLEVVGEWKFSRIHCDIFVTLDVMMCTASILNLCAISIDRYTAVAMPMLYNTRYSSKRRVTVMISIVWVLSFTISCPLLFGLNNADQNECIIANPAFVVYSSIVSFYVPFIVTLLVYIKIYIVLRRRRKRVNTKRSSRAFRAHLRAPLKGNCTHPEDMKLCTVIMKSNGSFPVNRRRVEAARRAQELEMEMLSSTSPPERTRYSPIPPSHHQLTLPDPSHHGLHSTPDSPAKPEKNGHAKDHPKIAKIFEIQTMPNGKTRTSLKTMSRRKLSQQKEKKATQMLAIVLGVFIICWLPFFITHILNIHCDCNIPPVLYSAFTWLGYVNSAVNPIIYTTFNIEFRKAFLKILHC

Organism: Rattus norvegicus
Test: Selectivity ratio of Ki for rat cloned dopamine D2L receptor to Ki for rat cloned dopamine D3 receptor

Ratio Ki | Compound
43.5 | CCCN(CCN1CCN(c2ccccc2)CC1)[C@@H]1CCc2ccc(NS(=O)(=O)c3ccc(OC)cc3)cc2C1
29.8 | CCCN(CCN1CCN(c2ccccc2)CC1)[C@@H]1CCc2ccc(N)cc2C1
29.2 | CCCN(CCN1CCN(c2ccccc2)CC1)C1CCc2ccc(NS(=O)(=O)c3ccc(OC)cc3)cc2C1 (racemic)
59.6 | CCCN(CCN1CCN(c2ccccc2)CC1)[C@H]1CCc2ccc(N)cc2C1
28.2 | CCCN(CCN1CCN(c2ccccc2)CC1)[C@H]1CCc2c(cccc2OS(=O)(=O)c2ccc(OC)cc2)C1

Biological target: D(2) dopamine receptor (Homo sapiens, UniProt P14416)
Test: Agonist activity at human dopamine D2L receptor expressed in CHO cells assessed as stimulation of [35S]GTPgammaS binding after 60 mins by scintillation counting analysis
Type: functional, cell-based

EC50 | Compound
0.114 µM | CCCN(CCN1CCN(C(=O)c2cc3ccccc3[nH]2)CC1)C1CCc2nc(N)sc2C1 (stereo unspecified)
